Reference: patent publication US20060141496A1, “Method of screening substance interacting with ABC protein” (priority 2003, published 2006)

By UniProt entry, the sequences of proteins in these tests, tags left out.
UniProt P08183, whole entry: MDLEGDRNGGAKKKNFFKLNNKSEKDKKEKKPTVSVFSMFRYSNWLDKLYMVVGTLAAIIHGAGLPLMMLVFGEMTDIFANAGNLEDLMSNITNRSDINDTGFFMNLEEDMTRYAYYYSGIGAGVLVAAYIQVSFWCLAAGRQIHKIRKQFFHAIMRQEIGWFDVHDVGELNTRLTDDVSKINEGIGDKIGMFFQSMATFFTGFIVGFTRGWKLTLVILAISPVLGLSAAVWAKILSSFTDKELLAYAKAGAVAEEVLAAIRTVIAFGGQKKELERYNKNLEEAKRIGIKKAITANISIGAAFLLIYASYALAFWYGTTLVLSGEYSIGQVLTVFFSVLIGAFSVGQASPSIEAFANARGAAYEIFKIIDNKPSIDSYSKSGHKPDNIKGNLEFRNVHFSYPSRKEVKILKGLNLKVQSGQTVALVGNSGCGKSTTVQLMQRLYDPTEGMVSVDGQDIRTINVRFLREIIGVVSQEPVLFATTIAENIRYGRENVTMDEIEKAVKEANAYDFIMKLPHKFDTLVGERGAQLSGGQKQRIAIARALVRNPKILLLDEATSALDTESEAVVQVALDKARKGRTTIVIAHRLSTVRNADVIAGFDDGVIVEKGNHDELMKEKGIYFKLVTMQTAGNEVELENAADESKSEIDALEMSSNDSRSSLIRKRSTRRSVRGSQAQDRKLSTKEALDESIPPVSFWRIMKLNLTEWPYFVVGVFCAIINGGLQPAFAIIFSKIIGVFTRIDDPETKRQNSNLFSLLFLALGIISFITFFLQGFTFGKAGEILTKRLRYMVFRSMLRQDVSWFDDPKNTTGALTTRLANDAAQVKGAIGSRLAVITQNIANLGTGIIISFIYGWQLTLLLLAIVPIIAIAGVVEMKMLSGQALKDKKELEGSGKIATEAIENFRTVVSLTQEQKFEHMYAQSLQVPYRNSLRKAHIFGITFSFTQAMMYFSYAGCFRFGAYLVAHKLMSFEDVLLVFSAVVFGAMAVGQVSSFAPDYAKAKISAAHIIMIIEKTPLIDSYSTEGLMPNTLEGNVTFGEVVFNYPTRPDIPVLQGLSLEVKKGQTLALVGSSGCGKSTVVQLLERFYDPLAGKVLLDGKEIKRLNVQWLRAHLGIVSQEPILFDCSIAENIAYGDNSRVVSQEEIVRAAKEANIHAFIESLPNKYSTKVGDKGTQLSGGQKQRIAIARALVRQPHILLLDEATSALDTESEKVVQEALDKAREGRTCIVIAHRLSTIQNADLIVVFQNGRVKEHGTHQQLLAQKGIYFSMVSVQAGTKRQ

Biological target: human P-glycoprotein (Pgp or MDR 1) expressing membrane (Homo sapiens, UniProt P08183)
Conditions: substrate 0.05 mM; reaction time 5 minutes; 37° C.; background of control membrane subtracted; FIG. 4

SMILES: C[C@H]1O[C@@H](O[C@H]2[C@@H](O)C[C@H](O[C@H]3[C@@H](O)C[C@H](O[C@H]4CC[C@@]5(C)[C@H](CC[C@@H]6[C@@H]5C[C@@H](O)[C@]5(C)[C@@H](C7=CC(=O)OC7)CC[C@]65O)C4)O[C@@H]3C)O[C@@H]2C)C[C@H](O)[C@@H]1O [Digoxin]
- [3H] ADP binding activity compared to P-glycoprotein-expressing membrane without substrate: significant increase
